Laboratory results: patent publication US11401286B2 (Tetra Discovery Partners, LLC, priority 2012, dated 2022)
Like-named read-outs stand apart in the source and are kept apart here.

What was measured:
[1] = target: human PDE4D7 containing UCR1 activating mutation S54D (PDE4D7*) (Homo sapiens (Human), UniProt Q08499, S129D); assay: biochemical
[2] = system: human PDE4D7 containing UCR1 activating mutation S54D (PDE4D7*); conditions: for Selectivity PDE4 isoforms D/D*: ratio PDE4D7/PDE4D7*

Row | SMILES | IC50 [1] | Selectivity PDE4 isoforms D/D* [2] | Selectivity PDE4 isoforms B*/D* ([2]; ratio PDE4B1*/PDE4D7*) | Selectivity PDE4 isoforms B*/D* [2]
1 | CC(C)c1nc(Nc2ccc(CC(=O)O)cc2)nc(-c2ccc(Cl)s2)n1 [Example 25, 2-(4-((4-(5-chlorothiophen-2-yl)-6-isopropyl-1,3,5-triazin-2-yl)amino)phenyl)acetic acid] | > 1 µM | − (− indicates a selectivity of ≤10×) | – | –
2 | O=C(O)Cc1ccc(Oc2nc(-c3ccc(Cl)cc3)nc(C3CC3)n2)cc1 [Example 44, 2-(4-((4-(4-chlorophenyl)-6-cyclopropyl-1,3,5-triazin-2-yl)oxy)phenyl)acetic acid] | > 1 µM | – | − (− indicates a selectivity of ≤10×) | –
3 | O=C(O)Cc1ccc(Nc2nc(-c3cccc(F)c3)nc(C3CC3)n2)cc1 [Example 47, 2-(4-((4-cyclopropyl-6-(3-fluorophenyl)-1,3,5-triazin-2-yl)amino)phenyl)acetic acid] | > 1 µM | – | − (− indicates a selectivity of ≤10×) | –
4 | CC(C)c1nc(Nc2ccc(F)cc2)nc(-c2ccc(Cl)s2)n1 [Example 26, 4-(5-chlorothiophen-2-yl)-N-(4-fluorophenyl)-6-isopropyl-1,3,5-triazin-2-amine] | < 1 µM | – | − (− indicates a selectivity of ≤10×) | –
5 | O=C(O)Cc1ccc(Nc2nc(-c3ccc(Cl)cc3)nc(C3CC3)n2)cc1 [Example 37, 2-(4-((4-(4-chlorophenyl)-6-cyclopropyl-1,3,5-triazin-2-yl)amino)phenyl)acetic acid] | > 1 µM | − (− indicates a selectivity of ≤10×) | − (− indicates a selectivity of ≤10×) | –
6 | O=C(O)COc1ccc(Nc2cc(-c3cccc(Cl)c3)nc3c2CCC3)cc1 [Example 4, 2-[4-[[2-(3-Chlorophenyl)-6,7-dihydro-5H-cyclopenta[b]pyridin-4-yl]amino]phenoxy]acetic acid] | > 1 µM | – | – | + (key: + indicates a selectivity of the given ratio of isoforms of >10×; − indicates a selectivity of ≤10×)
7 | O=C(O)c1ccc(Nc2cc(-c3cccc(Cl)c3)nc3c2CCC3)cc1 [Example 5, 4-[[2-(3-Chlorophenyl)-6,7-dihydro-5H-cyclopenta[b]pyridin-4-yl]amino]benzoic acid] | < 1 µM | + (+ indicates a selectivity of the given ratio of isoforms of >10×) | – | –
8 | CCc1c(Nc2ccc(CC(=O)O)cc2)cc(-c2cccc(Cl)c2)nc1C [Example 7, 2-[4-[[6-(3-Chlorophenyl)-3-ethyl-2-methyl-4-pyridyl]amino]phenyl]acetic acid] | > 1 µM | − (− indicates a selectivity of ≤10×) | − (− indicates a selectivity of ≤10×) | –
9 | O=C(O)Cc1ccc(Oc2nc(-c3cccc(Cl)c3)nc(C3CC3)n2)cc1 [Example 43, 2-(4-((4-(3-chlorophenyl)-6-cyclopropyl-1,3,5-triazin-2-yl)oxy)phenyl)acetic acid] | > 1 µM | − (− indicates a selectivity of ≤10×) | − (− indicates a selectivity of ≤10×) | –
10 | CC(C)c1nc(Nc2ccc(C(=O)O)cc2)nc(-c2ccc(Cl)s2)n1 [Example 29, 4-(4-(5-chlorothiophen-2-yl)-6-isopropyl-1,3,5-triazin-2-ylamino)benzoic acid] | < 1 µM | − (− indicates a selectivity of ≤10×) | − (− indicates a selectivity of ≤10×) | –
11 | N#CCc1ccc(Nc2cc(-c3cccc(Cl)c3)nc3c2CCC3)cc1 [Example 1, 2-[4-[[2-(3-Chlorophenyl)-6,7-dihydro-5H-cyclopenta[b]pyridin-4-yl]amino]phenyl]acetonitrile] | < 1 µM | – | − (− indicates a selectivity of ≤10×) | –
12 | Cc1nc(Nc2ccc(CC(=O)O)cc2)nc(-c2ccco2)n1 [Example 24, 2-(4-((4-(furan-2-yl)-6-methyl-1,3,5-triazin-2-yl)amino)phenyl)acetic acid] | > 1 µM | − (− indicates a selectivity of ≤10×) | − (− indicates a selectivity of ≤10×) | –
13 | NC(=O)Cc1ccc(Nc2nc(-c3ccc(Cl)s3)nc3c2CCC3)cc1 [Example 20, 2-[4-[[2-(5-chloro-2-thienyl)-6,7-dihydro-5H-cyclopenta[d]pyrimidin-4-yl]amino]phenyl]acetamide] | < 1 µM | + (+ indicates a selectivity of the given ratio of isoforms of >10×) | – | –
14 | NC(=O)Cc1ccc(Nc2nc(-c3cccc(Cl)c3)nc3c2CCC3)cc1 [Example 21, 2-[4-[[2-(3-chlorophenyl)-6,7-dihydro-5H-cyclopenta[d]pyrimidin-4-yl]amino]phenyl]acetamide] | < 1 µM | + (+ indicates a selectivity of the given ratio of isoforms of >10×) | – | –

The next lines start with results.

Row | IC50 [1] | SMILES | Selectivity PDE4 isoforms D/D* [2] | Selectivity PDE4 isoforms B*/D* ([2]; ratio PDE4B1*/PDE4D7*) | Selectivity PDE4 isoforms B*/D* [2]
15 | < 1 µM | CCc1nc(Nc2ccc(CC(=O)O)cc2)nc(-c2cccc(F)c2)n1 [Example 48, 2-(4-((4-ethyl-6-(3-fluorophenyl)-1,3,5-triazin-2-yl)amino)phenyl)acetic acid] | – | − (− indicates a selectivity of ≤10×) | –
16 | < 1 µM | CCc1nc(Nc2ccc(F)cc2)nc(-c2ccc(Cl)s2)n1 [Example 28, 4-(5-chlorothiophen-2-yl)-6-ethyl-N-(4-fluorophenyl)-1,3,5-triazin-2-amine] | − (− indicates a selectivity of ≤10×) | − (− indicates a selectivity of ≤10×) | –
17 | < 1 µM | CCc1nc(Nc2ccc(C(=O)O)cc2)nc(-c2ccc(Cl)s2)n1 [Example 30, 4-(4-(5-chlorothiophen-2-yl)-6-ethyl-1,3,5-triazin-2-ylamino)benzoic acid] | − (− indicates a selectivity of ≤10×) | − (− indicates a selectivity of ≤10×) | –
18 | < 1 µM | CCc1nc(Nc2ccc(-c3nn[nH]n3)cc2)nc(-c2cccc(Cl)c2)n1 [Example 54, N-(4-(2H-tetrazol-5-yl)phenyl)-4-(3-chlorophenyl)-6-ethyl-1,3,5-triazin-2-amine] | – | − (− indicates a selectivity of ≤10×) | –
19 | > 1 µM | O=C(O)Cc1ccc(Nc2nc(-c3cccc(Cl)c3)nc(C3CC3)n2)cc1 [Example 36, 2-(4-((4-(3-chlorophenyl)-6-cyclopropyl-1,3,5-triazin-2-yl)amino)phenyl)acetic acid] | – | − (− indicates a selectivity of ≤10×) | –
20 | < 1 µM | CCc1nc(Nc2ccc(C(C)(C)C(=O)O)cc2)nc(-c2cccc(Cl)c2)n1 [Example 60, 2-(4-(4-(3-chlorophenyl)-6-ethyl-1,3,5-triazin-2-ylamino)phenyl)-2-methylpropanoic] | – | − (− indicates a selectivity of ≤10×) | –
21 | < 1 µM | CCc1nc(Oc2ccc(CC(N)=O)cc2)nc(-c2cccc(Cl)c2)n1 [Example 61, 2-(4-((4-(3-chlorophenyl)-6-ethyl-1,3,5-triazin-2-yl)oxy)phenyl)acetamide] | + (+ indicates a selectivity of the given ratio of isoforms of >10×) | + (+ indicates a selectivity of the given ratio of isoforms of >10×) | –
22 | > 1 µM | CCc1nc(Oc2ccc(C(N)=O)cc2)nc(-c2cccc(Cl)c2)n1 [Example 63, 4-((4-(3-chlorophenyl)-6-ethyl-1,3,5-triazin-2-yl)oxy)benzamide] | – | − (− indicates a selectivity of ≤10×) | –
23 | < 1 µM | CCc1nc(Nc2ccc(CC(=O)O)cc2)nc(-c2ccc(Cl)s2)n1 [Example 27, 2-(4-((4-(5-chlorothiophen-2-yl)-6-ethyl-1,3,5-triazin-2-yl)amino)phenyl)acetic acid] | − (− indicates a selectivity of ≤10×) | – | –
24 | < 1 µM | CCc1nc(Nc2ccc(C#N)cc2)nc(-c2cccc(Cl)c2)n1 [Example 51, 4-(4-(3-chlorophenyl)-6-ethyl-1,3,5-triazin-2-ylamino)benzonitrile] | + (+ indicates a selectivity of the given ratio of isoforms of >10×) | − (− indicates a selectivity of ≤10×) | –
25 | < 1 µM | CCc1nc(Nc2ccc(CC#N)cc2)nc(-c2cccc(Cl)c2)n1 [Example 52, 2-(4-(4-(3-chlorophenyl)-6-ethyl-1,3,5-triazin-2-ylamino)phenyl)acetonitrile] | + (+ indicates a selectivity of the given ratio of isoforms of >10×) | + (+ indicates a selectivity of the given ratio of isoforms of >10×) | –
